Sequences of proteins named here, by UniProt entry; tags and fusion partners are left off. A change or cut given only in a name is not applied to a line headed by its entry.
UniProt P51511: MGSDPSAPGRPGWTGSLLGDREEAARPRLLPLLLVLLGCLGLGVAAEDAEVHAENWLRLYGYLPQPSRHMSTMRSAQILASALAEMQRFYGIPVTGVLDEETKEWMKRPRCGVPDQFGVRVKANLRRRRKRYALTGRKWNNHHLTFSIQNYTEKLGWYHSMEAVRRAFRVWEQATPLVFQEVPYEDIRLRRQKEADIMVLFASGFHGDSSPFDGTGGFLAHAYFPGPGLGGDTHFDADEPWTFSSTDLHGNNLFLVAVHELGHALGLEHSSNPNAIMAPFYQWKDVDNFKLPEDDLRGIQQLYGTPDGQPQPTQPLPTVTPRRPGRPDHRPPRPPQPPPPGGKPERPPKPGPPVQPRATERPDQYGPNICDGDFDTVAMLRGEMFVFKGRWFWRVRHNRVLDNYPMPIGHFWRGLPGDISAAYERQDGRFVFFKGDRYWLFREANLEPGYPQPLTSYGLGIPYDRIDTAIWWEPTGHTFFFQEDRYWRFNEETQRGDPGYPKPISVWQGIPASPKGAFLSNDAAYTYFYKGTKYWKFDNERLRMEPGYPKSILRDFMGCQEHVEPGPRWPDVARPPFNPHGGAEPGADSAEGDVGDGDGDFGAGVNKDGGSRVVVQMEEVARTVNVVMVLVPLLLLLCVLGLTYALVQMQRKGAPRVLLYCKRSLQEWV

In ChEMBL document CHEMBL1146709, “Tetrahydroisoquinoline based sulfonamide hydroxamates as potent matrix metalloproteinase inhibitors” (Bioorg Med Chem Lett, 2004):

Molecular target: Matrix metalloproteinase-15 (Homo sapiens, UniProt P51511)
Assay: Inhibition of matrix metalloprotease-15 (MMP-15)

With `CNC(=O)[C@H](Cc1c[nH]c2ccccc12)NC(=O)[C@@H](CC(=O)NO)CC(C)C` [ILOMASTAT] the IC50 was 6 nM.
